# What was measured:
# HPRT gene = assay: microtiter plate mutation assay selecting 6-thioguanine-resistant colonies; settings: MT1 cells, 4 μM MNNG for 45 minutes, 6TGR colonies
# [1] = tested on: APC gene target sequence (APC cDNA bp 8543–8663); assay: point mutational spectrum by target enrichment, CDCE and hifiPCR in MNNG-treated MT1 cells
# [2] = sequence printed PyGPu (row r15)
compound,measurement,setting,value
CN(N=O)C(=N)N[N+](=O)[O-],MNNG-induced mutant fraction in the HPRT gene,HPRT gene,8×10^−3
same,likelihood of mutation of guanine preceded 5′ by a purine vs by a pyrimidine,"[1]; MNNG-induced GC->AT transitions, 29 guanine sites",seven times more likely to be mutated
same,Average mutant fraction per site (×10^6),[1]; sequence GPu,2.5 ×10^6
same,Total mutant fraction (×10^6),[1]; sequence GPu,37 ×10^6
same,# mutated sites,"[1]; sequence GPu, 15 guanine sites",8
same,Average mutant fraction per site (×10^6),[1]; sequence GPy,1.9 ×10^6
same,Total mutant fraction (×10^6),[1]; sequence GPy,27 ×10^6
same,# mutated sites,"[1]; sequence GPy, 14 guanine sites",4
same,Average mutant fraction per site (×10^6),[1]; sequence PuG,3.5 ×10^6
same,Total mutant fraction (×10^6),[1]; sequence PuG,59 ×10^6
same,# mutated sites,"[1]; sequence PuG, 17 guanine sites",11
same,Average mutant fraction per site (×10^6),[1]; sequence PuGPu,4.7 ×10^6
same,Total mutant fraction (×10^6),[1]; sequence PuGPu,47 ×10^6
same,# mutated sites,"[1]; sequence PuGPu, 10 guanine sites",7
same,Average mutant fraction per site (×10^6),[1]; sequence PuGPy,2.6 ×10^6
same,Total mutant fraction (×10^6),[1]; sequence PuGPy,18 ×10^6
same,# mutated sites,"[1]; sequence PuGPy, 7 guanine sites",4
same,Average mutant fraction per site (×10^6),[1]; sequence PyG,0.5 ×10^6
same,Total mutant fraction (×10^6),[1]; sequence PyG,6 ×10^6
same,# mutated sites,"[1]; sequence PyG, 12 guanine sites",1
same,Average mutant fraction per site (×10^6),[1]; sequence PyGPu (row r14),1.2 ×10^6
same,Total mutant fraction (×10^6),[1]; sequence PyGPu (row r14),6 ×10^6
same,# mutated sites,"[1]; sequence PyGPu (row r14), 5 guanine sites",1
same,Average mutant fraction per site (×10^6),[1]; [2],0 ×10^6
same,Total mutant fraction (×10^6),[1]; [2],0 ×10^6
same,# mutated sites,"[1]; sequence printed PyGPu (row r15), 7 guanine sites",0
